This is an account of results in ChEMBL document CHEMBL5247656, “Discovery of a Potent, Cooperative, and Selective SOS1 PROTAC ZZ151 with In Vivo Antitumor Efficacy in KRAS-Mutant Cancers” (J Med Chem, 2023).

In this assay the target is T1, Son of sevenless homolog 1 (Homo sapiens) (UniProt Q07889).
T1 sequence (whole entry): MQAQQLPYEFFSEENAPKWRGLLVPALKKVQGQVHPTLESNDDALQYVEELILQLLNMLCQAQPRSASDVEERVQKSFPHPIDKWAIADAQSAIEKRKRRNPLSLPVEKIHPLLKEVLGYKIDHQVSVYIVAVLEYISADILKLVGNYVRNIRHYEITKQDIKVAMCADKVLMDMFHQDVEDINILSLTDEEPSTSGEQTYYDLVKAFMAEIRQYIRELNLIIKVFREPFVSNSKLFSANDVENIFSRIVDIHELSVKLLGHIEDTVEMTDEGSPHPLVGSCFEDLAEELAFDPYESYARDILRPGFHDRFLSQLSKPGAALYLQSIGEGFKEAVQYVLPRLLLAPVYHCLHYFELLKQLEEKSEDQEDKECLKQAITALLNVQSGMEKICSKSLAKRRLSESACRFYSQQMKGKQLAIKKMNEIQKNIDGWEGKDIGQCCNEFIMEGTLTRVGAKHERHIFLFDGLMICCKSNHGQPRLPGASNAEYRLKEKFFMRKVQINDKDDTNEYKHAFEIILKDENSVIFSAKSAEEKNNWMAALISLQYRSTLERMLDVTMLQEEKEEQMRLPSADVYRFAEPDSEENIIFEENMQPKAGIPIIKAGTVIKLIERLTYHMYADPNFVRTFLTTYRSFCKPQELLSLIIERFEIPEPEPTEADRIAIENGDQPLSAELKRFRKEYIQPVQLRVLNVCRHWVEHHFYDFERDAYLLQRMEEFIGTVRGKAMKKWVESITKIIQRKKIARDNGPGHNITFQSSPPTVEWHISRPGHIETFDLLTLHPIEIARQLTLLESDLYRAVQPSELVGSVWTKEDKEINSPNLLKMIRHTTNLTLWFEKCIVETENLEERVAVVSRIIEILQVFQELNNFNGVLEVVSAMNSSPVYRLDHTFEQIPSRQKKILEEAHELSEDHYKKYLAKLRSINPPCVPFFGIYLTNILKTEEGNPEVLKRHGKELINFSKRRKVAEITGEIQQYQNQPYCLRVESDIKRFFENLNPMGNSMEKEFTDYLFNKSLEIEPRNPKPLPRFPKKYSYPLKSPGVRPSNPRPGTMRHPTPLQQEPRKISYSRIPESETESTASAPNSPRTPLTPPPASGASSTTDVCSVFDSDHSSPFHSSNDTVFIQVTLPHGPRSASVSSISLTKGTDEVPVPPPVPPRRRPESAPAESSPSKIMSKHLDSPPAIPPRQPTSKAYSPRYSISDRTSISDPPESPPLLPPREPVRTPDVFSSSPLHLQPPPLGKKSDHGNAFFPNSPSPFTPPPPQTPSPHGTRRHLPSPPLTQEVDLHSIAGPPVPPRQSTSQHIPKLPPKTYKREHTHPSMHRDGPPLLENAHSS
Kind of assay: Co-operativity factor, ratio of Kd for binding affinity to GST-tagged human SOS1 (564 to 1049 reisudes) expressed in Escherichia coli BL21 (DE3) cells assessed as binary complex formation to Kd for binding affinity to GST-tagged human SOS1 (564 to 1049 residues) expressed in Escherichia coli BL21 (DE3) cells assessed as ternary complex formation in the presence of 6His tagged human VCB.

With `COc1cc2nc(C)nc(N[C@H](C)c3cc(N)cc(C(F)(F)F)c3)c2cc1C1CCN(C(=O)CCCCCC(=O)N[C@H](C(=O)N2C[C@H](O)C[C@H]2C(=O)N[C@@H](C)c2ccc(-c3scnc3C)cc2)C(C)(C)C)CC1`, the Ratio came out at 11.4.
